From patent US20050176755A1, “Aza-bridged-bicyclic amino acid derivatives as alpha4 integrin antagonists” (priority 2003, published 2005)

Sequences of proteins named here, by UniProt entry; tags and fusion partners are left off. Residues count along the entry.
UniProt P13612, 34-1032 limits assumed: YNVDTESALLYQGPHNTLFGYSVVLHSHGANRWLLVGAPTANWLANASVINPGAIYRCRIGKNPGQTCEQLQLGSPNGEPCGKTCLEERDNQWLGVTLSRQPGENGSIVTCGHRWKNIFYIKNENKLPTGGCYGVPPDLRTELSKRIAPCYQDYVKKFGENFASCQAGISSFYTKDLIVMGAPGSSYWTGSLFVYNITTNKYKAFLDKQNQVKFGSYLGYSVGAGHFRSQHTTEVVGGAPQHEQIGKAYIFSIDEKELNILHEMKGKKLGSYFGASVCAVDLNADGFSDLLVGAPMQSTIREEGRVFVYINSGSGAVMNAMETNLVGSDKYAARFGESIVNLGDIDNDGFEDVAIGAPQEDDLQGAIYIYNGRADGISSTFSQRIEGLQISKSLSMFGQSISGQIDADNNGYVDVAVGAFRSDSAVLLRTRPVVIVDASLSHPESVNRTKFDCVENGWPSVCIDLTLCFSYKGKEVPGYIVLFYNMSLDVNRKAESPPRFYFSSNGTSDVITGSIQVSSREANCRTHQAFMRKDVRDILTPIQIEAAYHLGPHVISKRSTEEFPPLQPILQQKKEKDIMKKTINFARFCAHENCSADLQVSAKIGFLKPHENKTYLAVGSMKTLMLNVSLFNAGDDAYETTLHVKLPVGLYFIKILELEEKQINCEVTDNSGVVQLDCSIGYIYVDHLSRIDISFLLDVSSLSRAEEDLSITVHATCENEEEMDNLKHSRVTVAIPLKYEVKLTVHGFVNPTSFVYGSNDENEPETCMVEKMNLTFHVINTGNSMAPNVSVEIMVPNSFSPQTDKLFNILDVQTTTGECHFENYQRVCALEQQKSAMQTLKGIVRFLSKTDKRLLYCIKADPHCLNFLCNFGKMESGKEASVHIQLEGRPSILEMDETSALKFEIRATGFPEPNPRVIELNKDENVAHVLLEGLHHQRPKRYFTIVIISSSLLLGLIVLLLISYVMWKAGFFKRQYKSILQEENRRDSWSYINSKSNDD
UniProt P26010, 20-798 limits assumed: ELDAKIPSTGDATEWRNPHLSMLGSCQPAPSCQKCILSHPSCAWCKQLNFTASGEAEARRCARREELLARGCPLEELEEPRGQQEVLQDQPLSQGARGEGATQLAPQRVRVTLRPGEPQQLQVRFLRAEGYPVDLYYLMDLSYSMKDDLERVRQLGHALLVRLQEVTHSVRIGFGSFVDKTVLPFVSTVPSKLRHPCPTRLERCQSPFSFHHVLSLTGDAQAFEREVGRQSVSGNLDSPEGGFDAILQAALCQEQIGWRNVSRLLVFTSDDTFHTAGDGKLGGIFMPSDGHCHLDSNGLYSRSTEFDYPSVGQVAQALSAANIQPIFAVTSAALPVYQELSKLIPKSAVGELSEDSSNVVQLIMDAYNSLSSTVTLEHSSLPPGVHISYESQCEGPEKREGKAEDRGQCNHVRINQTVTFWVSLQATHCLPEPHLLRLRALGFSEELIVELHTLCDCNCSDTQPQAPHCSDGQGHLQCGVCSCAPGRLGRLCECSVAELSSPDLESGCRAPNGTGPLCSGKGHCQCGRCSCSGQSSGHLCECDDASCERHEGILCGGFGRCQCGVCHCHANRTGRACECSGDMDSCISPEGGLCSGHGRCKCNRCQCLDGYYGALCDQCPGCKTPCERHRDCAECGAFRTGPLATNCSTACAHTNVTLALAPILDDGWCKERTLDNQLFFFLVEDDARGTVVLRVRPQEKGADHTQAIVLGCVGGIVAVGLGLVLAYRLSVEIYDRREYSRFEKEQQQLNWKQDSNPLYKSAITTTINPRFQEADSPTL
UniProt P05556, 21-798 limits assumed: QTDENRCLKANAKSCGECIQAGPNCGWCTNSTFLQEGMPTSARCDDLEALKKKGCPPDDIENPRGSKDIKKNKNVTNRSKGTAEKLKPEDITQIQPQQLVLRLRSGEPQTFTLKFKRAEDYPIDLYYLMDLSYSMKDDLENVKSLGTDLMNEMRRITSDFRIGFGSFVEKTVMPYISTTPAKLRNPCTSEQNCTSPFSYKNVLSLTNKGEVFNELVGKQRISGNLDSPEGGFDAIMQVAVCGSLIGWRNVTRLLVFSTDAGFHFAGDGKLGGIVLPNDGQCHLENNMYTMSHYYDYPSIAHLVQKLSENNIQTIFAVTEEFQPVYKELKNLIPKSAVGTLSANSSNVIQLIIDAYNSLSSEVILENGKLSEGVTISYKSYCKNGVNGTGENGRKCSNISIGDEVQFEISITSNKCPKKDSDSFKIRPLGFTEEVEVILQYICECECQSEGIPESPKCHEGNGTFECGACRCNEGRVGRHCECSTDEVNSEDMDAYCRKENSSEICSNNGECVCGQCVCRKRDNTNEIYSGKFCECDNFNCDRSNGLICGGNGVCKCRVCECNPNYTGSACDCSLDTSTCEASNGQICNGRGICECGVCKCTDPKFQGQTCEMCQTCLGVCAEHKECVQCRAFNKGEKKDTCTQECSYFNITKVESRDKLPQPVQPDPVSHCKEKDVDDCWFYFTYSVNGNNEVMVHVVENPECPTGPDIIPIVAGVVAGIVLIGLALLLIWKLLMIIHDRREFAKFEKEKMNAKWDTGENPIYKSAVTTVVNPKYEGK

Experiments:
human α4β7 = human α4β7 (Homo sapiens, UniProt P13612+P26010); test: α4β7-K562 Cell Adhesion Assay (α4β7 Mediated Adhesion/VCAM-1); settings: read-out: α4β7 IC50; K562 cells expressing human α4β7, adhesion to recombinant hVCAM-1; tested form: TFA
α4β1 = α4β1 (Homo sapiens, UniProt P05556+P13612); test: Ramos Cell Adhesion Assay (α4β1 Mediated Adhesion/VCAM-1); settings: read-out: α4β1 IC50; Ramos cells, adhesion to recombinant hVCAM-1; tested form: TFA

With CC(C)(C)OC(=O)NCCC(=O)N1C2CCC(CC2)C1C(=O)N[C@@H](Cc1ccc(NC(=O)c2c(Cl)cncc2Cl)cc1)C(=O)O (some centres unmarked) the IC50 (human α4β7) was 0.03 µM and the IC50 (α4β1) was 0.009 µM.
